According to patent US7060501B2 (priority 2002, dated 2006):

How the values were obtained:
maize callus = test: Effect of organophosphates on maize callus growth (FIG. 1); format: cell-based
[1] = target: organophosphate hydrolase (Brevundimonas diminuta, UniProt P0A434); conditions: cited from earlier work

| Molecule | effect on new growth from maize callus (maize callus) | rate of hydrolysis by organophosphate hydrolase compared with strong alkaline / non-enzymatic hydrolysis [1] |
| --- | --- | --- |
| CC(C)OP(=S)(OC(C)C)SCCNS(=O)(=O)c1ccccc1 | inhibitory effect |  |
| azinophos-methyl |  | thousands of times greater |
